7 compounds from US7160888B2, “[1,8]naphthyridin-2-ones and related compounds for the treatment of schizophrenia” (Warner Lambert Company LLC, priority 2003, dated 2007) can be followed below.

By UniProt entry, the sequences of proteins in these tests, tags left out.
UniProt P14416, whole entry: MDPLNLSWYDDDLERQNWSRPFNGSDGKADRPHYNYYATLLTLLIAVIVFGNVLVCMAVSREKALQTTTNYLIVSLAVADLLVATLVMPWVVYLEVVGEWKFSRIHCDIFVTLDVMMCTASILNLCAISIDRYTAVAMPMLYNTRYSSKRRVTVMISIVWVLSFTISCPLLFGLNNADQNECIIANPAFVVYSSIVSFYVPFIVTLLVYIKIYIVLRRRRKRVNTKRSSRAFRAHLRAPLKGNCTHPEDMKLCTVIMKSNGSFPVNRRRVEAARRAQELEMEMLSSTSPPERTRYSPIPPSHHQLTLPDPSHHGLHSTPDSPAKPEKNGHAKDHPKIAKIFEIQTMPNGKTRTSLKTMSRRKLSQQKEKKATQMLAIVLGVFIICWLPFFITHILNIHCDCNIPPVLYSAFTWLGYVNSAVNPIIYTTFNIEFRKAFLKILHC

The experiment concerns the target D2 receptor (Homo sapiens, UniProt P14416). As to the kind of experiment: [3H]Thymidine uptake assay for D2 intrinsic activity. The experiment is classed as cell-based. The settings on record: Table 1; test compound 1 μM; 1 μM Quinpirole = 100% intrinsic activity.
By Emax is commonly meant the greatest response seen or fitted, relative to the assay's reference. `O=c1ccc2ccc(OCCCCN3CCN(c4cc(F)cc5c4CCCC5)CC3)nc2[nH]1` [Example B34, 7-{4-[4-(3-Fluoro-5,6,7,8-tetrahydro-naphthalen-1-yl)-piperazin-1-yl]-butoxy}-1H-[1,8]naphthyridin-2-one]: the maximum response (Emax) at 1 µM worked out at 14%. To `O=c1ccc2ccc(OCCCCN3CCN(c4cc(F)cc5ccccc45)CC3)nc2[nH]1` [Example B53, 7-{4-[4-(3-Fluoro-naphthalen-1-yl)-piperazin-1-yl]-butoxy}-1H-[1,8]naphthyridin-2-one] belongs 26%; to `O=c1ccc2ccc(OCCCCN3CCN(c4ccccc4Cl)CC3)nc2[nH]1` [Example B25, 7-{4-[4-(2-Chloro-phenyl)-piperazin-1-yl]-butoxy}-1H-[1,8]naphthyridin-2-one], 43%; to `O=c1ccc2ccc(OCCCCN3CCN(c4cccc5cc(F)ccc45)CC3)nc2[nH]1` [Example B48, 7-{4-[4-(6-Fluoro-naphthalen-1-yl)-piperazin-1-yl]-butoxy}-1H-[1,8]naphthyridin-2-one], 19%. For `O=c1ccc2ccc(CCCCCN3CCN(c4cccc(Cl)c4Cl)CC3)nc2[nH]1` [Example C20, 7-{5-[4-(2,3-Dichloro-phenyl)-piperazin-1-yl]-pentyl}-1H-[1,8]naphthyridin-2-one], the Emax at 1 µM was determined as 33%. The compound `Cc1ccccc1N1CCN(CCCCOc2ccc3ccc(=O)[nH]c3n2)CC1` [Example B12, 7-[4-(4-o-Tolyl-piperazin-1-yl)-butoxy]-1H-[1,8]naphthyridin-2-one] gave an Emax at 1 µM of 38%. As for `O=c1ccc2ccc(OCCCCN3CCN(c4cccc5ccc(F)cc45)CC3)nc2[nH]1` [Example B49, 7-{4-[4-(7-Fluoro-naphthalen-1-yl)-piperazin-1-yl]-butoxy}-1H-[1,8]naphthyridin-2-one], the Emax at 1 µM worked out at 50%.
